Data set [1] concerns the target T1, human cathepsin K (Homo sapiens, UniProt P43235). The experiment in a line: Digestion of human Col II with cathepsin K, C2K neoepitope by inhibition ELISA. The note with it: pH 5.5, inhibitor added at start of incubation, each subsequent time point (data not shown). The procedure: Immulon™ 2 plates (VWR International, Montreal, Canada) were coated with the peptide-ovalbumin conjugate (prepared as described above for the hemocyanin conjugate) diluted in phosphate-buffered saline (PBS), pH 7.2, at 3 ng/well (50 μl/well), the optimum concentration as determined by checkerboard analyses. After overnight incubation at 4° C., the plate was washed three times with PBS-0.1% Tween™ 20 and blocked with 100 μl of PBS-1% bovine serum albumin (BSA), at room temperature for 30 minutes. Serial dilutions of the standard peptide containing the epitope that had been used for immunization were prepared and added at 50 μl/well in triplicate to round bottom polypropylene plates used as preincubation plates; the antiserum was diluted 1:12,000 (optimum dilution as determined by checkerboard analyses) in PBS-1% BSA, 0.1% Tween 20, pH 7.2, and added to the plates (50 μl/well). In the nonspecific binding wells 50 μl of PBS-1% BSA and 50 μl of PBS-1% BSA, 0.1% Tween 20 were added; the maximum binding wells contained 50 μl of the diluted antiserum and 50 μl of PBS-1% BSA. After 1 hour incubation at 37° C., 50 μl of each preincubated well was transferred to the Immulon 2 flat-bottom, 96-well microtiter plates. The plates were incubated at 4° C. for 30 minutes and then washed three times with PBS-0.1% Tween 20. […] The optical density (405 nm) was read after 1 hour incubation. […]
(In general: In an ELISA, binding on a coated surface is turned into a signal by an enzyme label.)

Protein sequences, listed by entry. Tags and fused reporters are not part of them. Residues count along the entry.
UniProt P43235, 115-329 limits assumed: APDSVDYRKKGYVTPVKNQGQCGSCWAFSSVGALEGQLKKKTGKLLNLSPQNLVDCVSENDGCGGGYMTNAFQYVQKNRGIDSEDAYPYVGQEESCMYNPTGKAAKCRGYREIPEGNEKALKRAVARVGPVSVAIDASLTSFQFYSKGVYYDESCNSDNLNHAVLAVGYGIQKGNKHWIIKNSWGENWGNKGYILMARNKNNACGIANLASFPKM
UniProt P25774, 115-331 limits assumed: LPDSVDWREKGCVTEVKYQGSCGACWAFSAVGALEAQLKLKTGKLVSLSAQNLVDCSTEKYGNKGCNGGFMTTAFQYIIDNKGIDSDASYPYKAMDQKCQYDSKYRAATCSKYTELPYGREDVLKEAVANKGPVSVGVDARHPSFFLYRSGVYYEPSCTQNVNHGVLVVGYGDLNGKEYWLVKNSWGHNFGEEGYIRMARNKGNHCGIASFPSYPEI
UniProt P07711, 114-333 limits assumed: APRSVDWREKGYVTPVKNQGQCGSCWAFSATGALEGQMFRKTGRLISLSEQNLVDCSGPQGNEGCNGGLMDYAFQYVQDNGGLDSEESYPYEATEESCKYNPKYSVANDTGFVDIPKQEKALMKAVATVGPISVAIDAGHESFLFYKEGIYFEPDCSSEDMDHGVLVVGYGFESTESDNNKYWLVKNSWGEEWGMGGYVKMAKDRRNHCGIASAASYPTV

The target in data set [2] is cathepsin S (Homo sapiens, UniProt P25774). The note with it: relative to human cathepsin K IC50; cited from earlier work.
Data set [3] relates to OA articular cartilage explants. The experiment in a line: Explant culture of OA cartilage with and without cathepsin K inhibitor. The procedure: Wet weights of 70 to 80 mg were placed in each of the wells of the culture plates (24-well Costar™ 3548 plate; Corning Inc., Corning, N.Y.). After 48 hours of preculture at 37° C. the media were changed (day 0) and then replaced every 4 days for a total of 16 days. The cultures were established in quadruplicate with and without the cathepsin K inhibitor (L-873724)^19 at 10 nmol/L, 25 nmol/L, and 50 nmol/L in a final concentration of 0.1% dimethyl sulfoxide (DMSO). The inhibitor was added fresh to the medium at each change. The media collected from day 4 to day 16 and the recovered cartilage were stored at −20° C. until analysis after digestion with α-chymotrypsin. Complete digestion of the cartilage was ensured by further adding 1 ml/tube of 1 mg/ml proteinase K (Sigma) in 50 mmol/L Tris-HCl containing the proteinase inhibitors.^2 After overnight incubation at 56° C. no residue remained and the enzyme was inactivated by boiling the samples for 10 minutes. […] The concentration of the neoepitope released from the cartilage was calculated by summation of the concentrations found both in the media and α-chymotrypsin digests and expressed as pmol of C2K/mg wet wt of cartilage as above. […] GAG release into the media was expressed as a percentage of the total GAG that represents the summation of the GAG concentration present in the media and the one from the two cartilage extracts.

For data set [4], the system named is cartilage culture. The experiment in a line: Toxicity analysis: [3H] proline incorporation in cartilage culture. The note with it: range of concentrations incl. 10, 25, 50 nmol/L (data not shown). As to the method:
The effect of L-873724 on the synthesis of Col II and other matrix proteins was assessed by measuring the incorporation of [^3H] proline in cartilage culture. The tissue was maintained for 7 days as described above, in the presence and absence of the inhibitor at 10 nmol/L, 25 nmol/L, and 50 nmol/L and media were changed at days 4 and 7. On day 7, medium was supplemented with 25 μCi/ml of tritiated proline (Amersham, Buckinghamshire, UK) and culture continued for 48 hours. After culture, the cartilage was harvested and washed three times for 10 to 15 minutes in PBS to remove free label. The cartilage was digested with proteinase K as described above and radioactivity determined by scintillation counting.

The target in data set [5] is cathepsin B (Homo sapiens, UniProt P07858). The note with it: relative to human cathepsin K IC50; cited from earlier work.
Data set [6] concerns the target T1, human cathepsin K. The note with it: read-out: IC50 against human cathepsin K; cited from earlier work.
Data set [7] has as its target cathepsin L (Homo sapiens, UniProt P07711). The note with it: relative to human cathepsin K IC50; cited from earlier work.

In general, IC50 refers to the concentration that gives 50% inhibition. With `CC(C)C[C@H](N[C@@H](c1ccc(-c2ccc(S(C)(=O)=O)cc2)cc1)C(F)(F)F)C(=O)NCC#N`, the “release of the C2K neoepitope with inhibitor in the digestion buffer” value in data set [1] is “negligible”. The “fold higher IC50 value versus cathepsin S” value in data set [2] was 890 fold. Further, the “generation of the C2K neoepitope (media plus cartilage)” value in data set [3] (10, 25, 50 nmol/L, 16 days culture, eight OA patients (FIG. 8)) is recorded as “reduced the generation of the neoepitope in four of eight OA patients”. In addition, in data set [3] (OA explant culture (data not shown)), the “proteoglycan degradation measured as glycosaminoglycan release” value is “no effect”. Also, in data set [4], the “toxicity: incorporation of tritiated proline into newly synthesized proteins” value is “nontoxic”. Besides, the “fold higher IC50 value versus cathepsin B” value in data set [5] is recorded as 890 fold. The IC50 in data set [6] was 0.2 nM. Also, in data set [7], the “fold higher IC50 value versus cathepsin L” value is given as 890 fold.

The record behind these values is US20110281285A1, “Assay for Detecting Cathepsin K Activty in Bone, Cartilage and/or Soft Tissue” (priority 2009, published 2011).
